Molecular target: T1, OAT2r (Rattus norvegicus, UniProt Q5RLM2)
T1 construct: expressed in transfected cells
T1 sequence (Q5RLM2 1-535): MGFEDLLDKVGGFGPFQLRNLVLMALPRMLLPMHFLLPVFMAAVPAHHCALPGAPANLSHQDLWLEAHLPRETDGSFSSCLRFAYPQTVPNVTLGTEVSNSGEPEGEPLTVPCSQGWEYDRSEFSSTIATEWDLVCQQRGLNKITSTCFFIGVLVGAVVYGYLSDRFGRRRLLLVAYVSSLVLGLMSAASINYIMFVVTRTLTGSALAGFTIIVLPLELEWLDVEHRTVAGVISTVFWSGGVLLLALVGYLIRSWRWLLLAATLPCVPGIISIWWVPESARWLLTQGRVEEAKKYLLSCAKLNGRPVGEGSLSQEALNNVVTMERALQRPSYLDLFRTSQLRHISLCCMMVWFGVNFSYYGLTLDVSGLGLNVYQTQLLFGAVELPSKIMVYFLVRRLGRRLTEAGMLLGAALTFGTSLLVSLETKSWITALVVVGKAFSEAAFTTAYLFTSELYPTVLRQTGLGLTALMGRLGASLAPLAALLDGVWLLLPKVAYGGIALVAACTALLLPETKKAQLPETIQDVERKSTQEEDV
Test: trans-stimulation of efflux of 3H-orotic acid via OAT2r
Assay type: cell-based
Conditions: 1 mmol/l compound in uptake buffer, 1 min, preloaded cells

2-oxoglutarate
trans-stimulation of efflux of 3H-orotic acid (in words): rejects
